The list shows a part of the results, in another mix than the full data. Calls of active or inactive are those of the source. No stated cut-off is given here; in the data, active means inhibition above about 32%; inactive means the rest.

The test in a line: TEAD-YAP interaction inhibition, primary screen, TEAD-YAP interaction inhibitor project, luminescence, HEK-TIYL cells (AID 1259422).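 Further: 0% = median of test compound wells and 100% = reference inhibitor wells.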 Conditions: TEAD-Gal4/YAP UAS-luciferase luminescence, at 9.12 µM, active compounds read high.
Turning to `COc1cc(OC)c(C(=O)NCC2(N(C)C)CCCCC2)cc1OC`, the inhibition (usually the relative decrease from the control value, in per cent) is inactive: -4.9%.

In the case of `Cc1ccc(C(=O)O)cc1N(CCCl)CCCl`, the inhibition was inactive: -1.68%.

For the molecule `COc1ccc(CN(CCCl)CCCl)cc1Cl`, the inhibition was inactive: 0.25%.

For the molecule `FC(F)(F)Oc1ccc(NC2CCNCC2)cc1`, the inhibition is inactive: -0.15%.

For `CCN1CCC(Nc2ccccc2F)CC1`, the inhibition is inactive: -3.84%.

Consider `CCCOc1ccc(C(=O)NCC2(N(C)C)CCCCC2)cc1OC`, for which the inhibition was inactive: -13.8%.

As to `Cc1cc(C(=O)NCC2(N3CCOCC3)CCCCC2)c2ccccc2n1`, the inhibition is inactive: 7.62%.

With `CN1CCC(Nc2cccc(F)c2)CC1`, the inhibition was inactive: -1.65%.

As to `COc1cccc(OC)c1CN1CCC(Nc2ccccc2)CC1`, the inhibition was inactive: 1.9%.

`O=C(NCC1(N2CCCCC2)CCCCC1)c1cncc(Br)c1`: the inhibition is inactive: -1.84%.

Take `CCN1CCC(Nc2ccc(Cl)cc2)CC1`: the inhibition was inactive: -0.42%.

`COc1ccc(CCN2CCC(N(Cc3ccco3)C(C)=O)CC2)cc1`: the inhibition is inactive: 2.87%.

For the molecule `COc1ccc(NC2CCN(CCc3cccs3)CC2)cc1`, the inhibition was inactive: -4.64%.

Take `O=C(NCC1(N2CCCCC2)CCCCC1)c1cccc([N+](=O)[O-])c1`: the inhibition was inactive: 7.45%.

Turning to `O=C(NCC1(N2CCOCC2)CCCCC1)c1cc(=O)[nH]c2ccccc12`, the inhibition was inactive: 0.41%.

Take `CN1CCN(CCOC(=O)C(O)(c2ccccc2)c2ccccc2)CC1`: the inhibition is inactive: -4.8%.

As for `COc1ccccc1/C=C/CN1CCN(C(C)=O)CC1`, the inhibition is inactive: -3.98%.

Regarding `CN(C)P(=O)(OC(C)(C)C(Cl)(Cl)Cl)SCCCCl` (centres undefined), the inhibition is inactive: 10.9%.

For `COc1ccc(NC2CCN(CCc3ccccn3)CC2)cc1`, the inhibition was inactive: -6.34%.

For `CCOC(=O)N1CCC(Nc2ccc(F)cc2)CC1`, the inhibition was inactive: 1.59%.

As to `CCCN1CCC(Nc2ccc(F)cc2)CC1`, the inhibition is inactive: -4.36%.

`O=C1CCN(Cc2ccccc2)CC1`: the inhibition is inactive: 1.06%.

With `CC(=O)N1CCc2ccc(N(C(=O)C(C)(C)C)C3CCN(Cc4ccccc4)CC3)cc21`, the inhibition was inactive: -2.56%.

As for `COc1cccc(CN(CCCl)CCCl)c1`, the inhibition was inactive: 10.4%.

On to `CCOC(=O)N1CCC(Nc2cccc(C)c2)CC1`, for which the inhibition is inactive: 8.73%.

As to `COc1ccc(C(=O)NCC2(N3CCCCC3)CCCCC2)cc1`, the inhibition was inactive: -13.8%.

In the case of `COc1ccc(C(=O)NCC2(N3CCCCC3)CCCCC2)c(OC)c1OC`, the inhibition is inactive: 1.74%.

For `CCCN1CCC(Nc2ccc(OC)c(OC)c2)CC1`, the inhibition was inactive: 1.73%.

`N#CC1(Nc2ccccc2)CCN(Cc2ccccc2)CC1`: the inhibition was inactive: 4.61%.

For `CC1CN(CCc2ccccc2)CCC1=O` (centres undefined), the inhibition is inactive: -3.58%.

For `CCOC(=O)N1CCC(Nc2ccc(OC)cc2)CC1`, the inhibition is inactive: 4.23%.

Take `CN(CCOC(=O)C(O)(c1ccccc1)c1ccccc1)C(C)(C)C`: the inhibition was inactive: 15.5%.

As for `O=C(O)C1(Nc2ccccc2)CCN(Cc2ccccc2)CC1`, the inhibition was inactive: 5.3%.

For `CCCOc1ccc(C(=O)NCC2(N(C)C)CCCCC2)cc1`, the inhibition is inactive: 4.02%.

In the case of `CC(C)(C)OC(=O)N1CCC(Nc2ccc(F)cc2F)CC1`, the inhibition was inactive: -0.61%.

In the case of `CN1CCC(Nc2ccc(F)c(Cl)c2)CC1`, the inhibition was inactive: -4.34%.

`Fc1ccc(NC2CCN(Cc3ccccc3)CC2)cc1F`: the inhibition was inactive: 0.65%.

Take `COc1ccc(NC2CCN(Cc3ccncc3)CC2)cc1`: the inhibition was inactive: 4.5%.

Regarding `CN1CCC(Nc2ccc(Cl)cc2)CC1`, the inhibition is inactive: 3.13%.

As to `CN(C)C1(CNC(=O)c2cc(=O)[nH]c3ccccc23)CCCCC1`, the inhibition was inactive: 3.88%.

Turning to `COc1cc(OC)cc(C(=O)NCC2(N3CCOCC3)CCCCC2)c1`, the inhibition is inactive: 4.89%.

`CCC(CO)(C(=O)OC1CN2CCC1CC2)c1ccccc1` (centres undefined): the inhibition was inactive: -0.6%.

With `Clc1ccc(NC2CCN(Cc3ccccc3)CC2)cc1`, the inhibition was inactive: 8.56%.

Turning to `Fc1cccc(NC2CCN(CCc3ccccc3)CC2)c1`, the inhibition was inactive: 3%.

Consider `CCCN1CCC(Nc2ccc(Cl)cc2)CC1`, for which the inhibition is inactive: -10.3%.

For the molecule `CN(C)C1(CNC(=O)c2cc3c(s2)CCC3)CCCCC1`, the inhibition is inactive: -3.43%.

For `CN1CCC(Nc2ccccc2Cl)CC1`, the inhibition is inactive: -3.56%.

Regarding `CC1CN(Cc2ccccc2)CCC1=O` (centres undefined), the inhibition was inactive: 4.55%.

With `[C-]#N.[K+].c1ccc2c(c1)OCCOCCOc1ccccc1OCCOCCO2`, the inhibition was inactive: 4.63%.

For the molecule `CC(C)(C)OC(=O)N1CCC(Nc2ccc(Cl)cc2Cl)CC1`, the inhibition is inactive: 2.76%.

`CN1CCC(Nc2ccccc2F)CC1`: the inhibition is inactive: 3.12%.

For the molecule `CCN1CCC(Nc2ccc(F)cc2)CC1`, the inhibition was inactive: 2.07%.

Turning to `CCOP(=O)(OCC)SCC(=O)N(CC)CC`, the inhibition was inactive: 2.66%.

As for `CC1CN(C)C(C)CC1Nc1ccccc1` (centres undefined), the inhibition was inactive: 1.57%.

On to `O=C(NCC1(N2CCCCC2)CCCCC1)c1ccc([N+](=O)[O-])s1`, for which the inhibition was inactive: -2.1%.

As to `COc1cccc(OC)c1CN1CCC(=O)CC1`, the inhibition is inactive: -5.14%.

Turning to `COc1ccc(CCN2CCC(Nc3ccc(OC)cc3)CC2)cc1`, the inhibition was inactive: 1.78%.

As to `CC(=O)N1CCN(C/C=C/c2ccccc2[N+](=O)[O-])CC1`, the inhibition was inactive: 1.89%.

Take `N#Cc1ccc(C(=O)NCC2(N3CCCCC3)CCCCC2)cc1`: the inhibition was inactive: -0.9%.

On to `c1ccc(CN2CCC(Nc3ccccc3)CC2)cc1`, for which the inhibition is inactive: -1.24%.

On to `CCCN1CCC(Nc2cc(OC)cc(OC)c2)CC1`, for which the inhibition was inactive: 0.86%.

In the case of `NC(=O)C1(Nc2ccccc2)CCN(Cc2ccccc2)CC1`, the inhibition is inactive: -8.21%.

As to `COc1ccc(C(=O)NCC2(N3CCOCC3)CCCCC2)cc1OC`, the inhibition is inactive: -0.7%.

In the case of `COc1cc(C(=O)NCC2(N3CCOCC3)CCCCC2)cc(OC)c1C`, the inhibition was inactive: 0.23%.

As to `CN1CCC(Nc2ccc(F)cc2)CC1`, the inhibition is inactive: 3.2%.

With `O=C1CCN(CCc2ccccc2)CC1`, the inhibition is inactive: 3.97%.

Turning to `CCOC(=O)N1CCC(Nc2ccc(Cl)cc2)CC1`, the inhibition was inactive: 1.97%.

As for `CCOC(=O)N1CCC(Nc2ccc(C)cc2)CC1`, the inhibition was inactive: 12.8%.

As for `O=C(NCC1(N2CCOCC2)CCCCC1)c1ccc2c(c1)OCO2`, the inhibition was inactive: 3.57%.

These data come from PubChem BioAssay AID1259422 (The Scripps Research Institute Molecular Screening Center, 2018).
